According to ChEMBL document CHEMBL5241080, “Quinoline anticancer agents active on DNA and DNA-interacting proteins: From classical to emerging therapeutic targets” (Eur J Med Chem, 2021):

Molecular target: T1, DNA topoisomerase 1 (Homo sapiens, UniProt P11387)
T1 sequence (P11387 whole entry): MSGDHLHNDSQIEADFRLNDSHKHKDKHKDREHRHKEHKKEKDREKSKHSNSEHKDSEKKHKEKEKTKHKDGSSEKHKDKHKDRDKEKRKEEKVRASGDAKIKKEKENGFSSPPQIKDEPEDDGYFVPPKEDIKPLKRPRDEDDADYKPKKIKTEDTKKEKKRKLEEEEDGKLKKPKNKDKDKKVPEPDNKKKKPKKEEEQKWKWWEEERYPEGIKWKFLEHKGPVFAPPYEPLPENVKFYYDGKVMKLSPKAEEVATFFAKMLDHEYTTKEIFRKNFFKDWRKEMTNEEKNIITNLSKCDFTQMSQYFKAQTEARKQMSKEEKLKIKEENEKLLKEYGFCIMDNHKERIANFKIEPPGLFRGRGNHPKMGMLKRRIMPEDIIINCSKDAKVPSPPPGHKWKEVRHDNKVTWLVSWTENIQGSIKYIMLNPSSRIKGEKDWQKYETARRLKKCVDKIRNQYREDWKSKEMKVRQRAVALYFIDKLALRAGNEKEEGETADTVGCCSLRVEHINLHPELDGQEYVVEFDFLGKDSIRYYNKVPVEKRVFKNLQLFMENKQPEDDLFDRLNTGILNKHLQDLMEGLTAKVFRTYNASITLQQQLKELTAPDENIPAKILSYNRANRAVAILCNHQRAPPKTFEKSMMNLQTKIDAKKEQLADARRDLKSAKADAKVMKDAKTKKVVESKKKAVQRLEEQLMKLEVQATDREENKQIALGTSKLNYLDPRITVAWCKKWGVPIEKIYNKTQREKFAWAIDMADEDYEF
Experiment: Inhibition of human topoisomerase 1

`COc1cccc2c1C(=O)c1c(O)c3c(c(O)c1C2=O)C[C@@](O)(C(=O)CO)C[C@@H]3O[C@H]1C[C@H](N)[C@H](O)[C@H](C)O1` [DOXORUBICIN] gave an IC50 of 3.2 µM.
